tested on: Phosphorylation of STAT6 in human A549 cells; assay: Phosphorylated STAT6 (pSTAT6) flow cytometry assay in human A549 cells; conditions: read-out: STAT6 IL4 pSTAT6 assay in A549 cells: Average IC50
Description: Example 3. Phosphorylated STAT6 (pSTAT6) Flow Cytometry Assay in Human A549 Cells
Phosphorylation of STAT6 in human A549 cells was quantitatively measured using flow cytometry technology.

Protein sequences, listed by entry. Tags and fused reporters are not part of them. Residues count along the entry.
UniProt P42226, 123-632 limits assumed: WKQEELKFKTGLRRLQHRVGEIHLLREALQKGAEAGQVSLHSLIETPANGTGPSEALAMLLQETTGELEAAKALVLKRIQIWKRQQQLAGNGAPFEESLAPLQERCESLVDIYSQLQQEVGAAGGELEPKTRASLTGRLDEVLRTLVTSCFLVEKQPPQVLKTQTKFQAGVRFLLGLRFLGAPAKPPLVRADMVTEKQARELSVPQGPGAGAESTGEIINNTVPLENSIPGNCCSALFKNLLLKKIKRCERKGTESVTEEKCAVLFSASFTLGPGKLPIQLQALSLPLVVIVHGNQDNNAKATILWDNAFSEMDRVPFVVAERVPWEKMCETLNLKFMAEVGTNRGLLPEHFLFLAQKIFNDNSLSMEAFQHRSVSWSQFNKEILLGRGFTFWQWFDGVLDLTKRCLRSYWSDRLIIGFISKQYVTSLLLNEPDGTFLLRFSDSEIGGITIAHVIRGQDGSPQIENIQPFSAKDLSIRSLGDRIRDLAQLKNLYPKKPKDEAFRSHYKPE

Compound | IC50
COc1ccccc1-c1cc(C2=CCCN(C(=O)CCn3ccnn3)C2)c(F)c2[nH]c(C(=O)N3CCC4(CCO4)CC3)cc12 | < 100 nM
COC[C@H]1CN(C(=O)c2cc3c(-c4ccccc4OC)cc(C4=CCCN(C(=O)CCn5ccnn5)C4)c(F)c3[nH]2)CCO1 (single isomer, unassigned) | < 100 nM
COc1ccncc1-c1cc([C@H]2CCCN(C(=O)CCn3ccnn3)C2)c(F)c2[nH]c(C(=O)N3CCN(c4ncccc4OC)CC3)cc12 (single isomer, unassigned) | < 100 nM
CCn1nccc1-c1cc(C2=CCCN(C(=O)CCn3ccnn3)C2)c(F)c2[nH]c(C(=O)N3Cc4cnn(CC)c4C3)cc12 | < 100 nM

target: biotinylated truncated STAT6 (123-632)-avi (Homo sapiens, UniProt P42226); assay: Homogenous Time-Resolved Fluorescence (HTRF) binding assay; conditions: read-out: STAT6 HTRF: Average IC50; 0.15 nM biotinylated truncated STAT6 (123-632)-avi, 20 nM fluorescein-labeled probe, 30 minutes at room temperature
Method: Example 1. Homogenous Time-Resolved Fluorescence (HTRF) Binding Assay
HTRF binding assays were performed using 0.15 nM biotinylated truncated STAT6 (123-632)-avi purified from E. coli, 1× Streptavidin-terbium (CisBio) prepared by mixing SA-Tb in PPI detection buffer (CisBio), 20 nM proprietary fluorescein-labeled probe, and test compounds in assay buffer consisting of 50 mM HEPES-Na pH 7.5, 100 mM NaCl, 1 mM EDTA, 2 mM DTT, 0.1% Tween-20 with a final volume of 20 uL. Compound stocks were dissolved at 10 mM in 100% DMSO and 11 point titration with 3 fold serial dilution was performed in white, opaque 384 well microplates. Reaction plates were incubated at room temperature for 30 minutes. Plates were centrifuged at low rpm for 5 mins, and the ratio of fluorescence intensities were measured at emission wavelengths for fluorescein acceptor (520 nm) and terbium donor (495 nm) on Envision Plate reader. % Inhibition was calculated from the 520/495 ratio generated by using proprietary positive control compound for 100% inhibition and DMSO only reactions for 0% inhibition. Data was processed and dose response curves were generated using GraphPad Prism to determine the concentration required for inhibiting 50% of the HTRF signal (IC50).

Compound | IC50
COc1ccccc1-c1cc(C2=CCCN(C(=O)CCn3ccnn3)C2)c(F)c2[nH]c(C(=O)N3CCC4(CCO4)CC3)cc12 | < 100 nM
COC[C@H]1CN(C(=O)c2cc3c(-c4ccccc4OC)cc(C4=CCCN(C(=O)CCn5ccnn5)C4)c(F)c3[nH]2)CCO1 (single isomer, unassigned) | < 100 nM
COc1ccncc1-c1cc([C@H]2CCCN(C(=O)CCn3ccnn3)C2)c(F)c2[nH]c(C(=O)N3CCN(c4ncccc4OC)CC3)cc12 (single isomer, unassigned) | < 100 nM
CCn1nccc1-c1cc(C2=CCCN(C(=O)CCn3ccnn3)C2)c(F)c2[nH]c(C(=O)N3Cc4cnn(CC)c4C3)cc12 | < 100 nM
COc1ccccc1-c1cc(C2=CCCN(C(=O)CCn3ccnn3)C2)c(F)c2[nH]c(C(=O)N3CCN(c4cccc5nncn45)CC3)cc12 | < 100 nM
COc1ccccc1-c1cc(C2=CCCN(C(=O)CCn3ccnn3)C2)c(F)c2[nH]c(C(=O)N3CCN(c4cc(F)cc(F)c4OC)CC3)cc12 [Example I-357] | < 100 nM

same assay, conditions: read-out: STAT6 HTRF: Average IC50; 0.15 nM biotinylated truncated STAT6 (123-632)-avi, 20 nM fluorescein-labeled probe, 30 minutes room temperature

Compound | IC50
COc1ccccc1-c1cc(C2=CCCN(C(=O)CCn3ccnn3)C2)c(F)c2[nH]ncc12 | < 100 nM
COc1cncc(C)c1-c1cc(C2=CCCN(C(=O)CCn3ccnn3)C2)c(F)c2[nH]c(C(=O)N(C)C)cc12 | < 100 nM
CN(C)C(=O)c1nc2ccc(C3=CCCN(C(=O)CCn4ccnn4)C3)cc2o1 | 10000 to 100000 nM
CCc1nc(C)ccc1-c1cc(C(=O)N2CCN(c3ncc(F)cc3OC)CC2)cc2c(F)c(C3CCCN(C(=O)C(=O)O)C3)n(CC3CC3)c12 (stereo not drawn) [Example I-1335] | 1000 to 10000 nM
CC(C#N)CNC(=O)c1cc2ccc(C3=CCCN(C(=O)CCn4ccnn4)C3)c(F)c2[nH]1 (stereo not drawn) | 1000 to 10000 nM
COc1ccccc1-c1cc(C2=CCCN(C(=O)CCn3ccnn3)C2)c(F)c2cc(N3CCCCC3=O)oc12 | < 100 nM
COc1ccccc1-c1cc(C2=CCCN(C(=O)CCn3ccnn3)C2)c(F)c2[nH]c(C(=O)N3CCN(c4cn5ccnc5cn4)CC3)cc12 | < 100 nM
COc1ccccc1-c1cc(C2=CCCN(C(=O)CCn3ccnn3)C2)c(F)c2[nH]c(C(=O)N3CC[C@@H](N4CCOCC4)C3)cc12 (single isomer, unassigned) | < 100 nM
COc1ccccc1-c1cc(C2=CCCN(C(=O)CCn3ccnn3)C2)c(F)c2[nH]c(C(=O)N3CCCC[C@@H]3CO)cc12 (single isomer, unassigned) | < 100 nM
COc1ccccc1-c1cc(C(=O)N(C)C)cc2c(F)c(C3=CCCN(C(=O)CCn4ccnn4)C3)[nH]c12 | < 100 nM
CCc1nc(C)ccc1-c1cc(C(=O)N2CCN(C3CC3)CC2)cc2c(F)c(C3CCCN(C(=O)CCc4nccs4)C3)n(CC3CC3)c12 (single isomer, unassigned) | 1000 to 10000 nM
CN(C)C(=O)c1cc2ccc([C@H]3CCCN(C(=O)NCc4ccc(C(N)=O)cc4)C3)c(F)c2[nH]1 (single isomer, unassigned) | 1000 to 10000 nM
CCc1nc(C)ccc1-c1cc(C(=O)N2Cc3cnn(C)c3C2)cc2c(F)c([C@@H]3CCCN(C(=O)CCn4ccnn4)C3)n(CC3CC3)c12 (single isomer, unassigned) | 1000 to 10000 nM
COc1ccccc1-c1cc(C2=CCCN(C(=O)CCn3ccnn3)C2)c(F)c2[nH]c(C(=O)N3CCOC[C@H]3C)cc12 (single isomer, unassigned) | < 100 nM
CCc1cnccc1-c1cc(C(=O)N2Cc3cnn(C)c3C2)cc2c(F)c([C@@H]3CCCN(C(=O)CCn4ccnn4)C3)n(CC3CC3)c12 (single isomer, unassigned) | 1000 to 10000 nM
COc1ccccc1-c1cc(C2=CCCN(C(=O)CCn3ccnn3)C2)c(F)c2[nH]c(C(=O)N3CCN(c4ccc(Cl)nn4)CC3)cc12 | < 100 nM
COc1ccccc1-c1cc(C2=CCCN(C(=O)CCn3ccnn3)C2)c(F)c2cc(C(F)F)oc12 | 1000 to 10000 nM
CCc1nc(C)ccc1-c1cc(C(=O)N2CCN(C3CC3)CC2)cc2c(F)c(C3CCCN(C(=O)CCn4ccnn4)C3)n(CC3CC3)c12 (single isomer, unassigned) | 1000 to 10000 nM
COc1ccccc1-c1cc(C2=CCCN(C(=O)CCn3ccnn3)C2)c(F)c2[nH]c(C(=O)N3CC(=O)NC[C@H]3C)cc12 | 100 to 1000 nM
CN(C)C(=O)c1cc2ccc(C3CCCN(C(=O)NCc4ccc(C(N)=O)cc4)C3)c(F)c2[nH]1 (stereo not drawn) | < 100 nM
COc1ccccc1-c1cc(C2=CCCN(C(=O)CCn3ccnn3)C2)c(F)c2[nH]c(C(=O)N3CCC[C@H](C(=O)N4CCCC4)C3)cc12 (single isomer, unassigned) | < 100 nM

Compound | IC50
COc1ccc(C)cc1-c1cc(C2=CCCN(C(=O)[C@@H]3Cc4ccccc4CN3C=O)C2)cc2cc(C(=O)N(C)C)oc12 (single isomer, unassigned) | 1000 to 10000 nM
COc1ccccc1-c1cc(C2=CCCN(C(=O)CCn3ccnn3)C2)c(F)c2[nH]c(C(=O)N[C@@H]3C=CS(=O)(=O)C3)cc12 (single isomer, unassigned) | 100 to 1000 nM
COc1ccccc1-c1cc(C2=CCCN(C(=O)CCn3ccnn3)C2)c(F)c2cc(C(=O)N(C)C)oc12 | < 100 nM
O=C(CCn1ccnn1)N1CCC=C(c2ccc3cc(C(=O)N4CCOC[C@@H](O)C4)[nH]c3c2F)C1 | 1000 to 10000 nM
COc1ccccc1-c1cc(C2=CCCN(C(=O)CCn3ccnn3)C2)c(F)c2cc(-n3cccn3)oc12 | < 100 nM
CC(C)Oc1ncccc1-c1cc(C2=CCCN(C(=O)CCn3ccnn3)C2)cc2cc(C(=O)N(C)C)oc12 | < 100 nM
COc1ccccc1-c1cc(C2=CCCN(C(=O)CCn3ccnn3)C2)c(F)c2cc(N3CCCC3=O)oc12 | < 100 nM
COc1ccccc1-c1cc(C(=O)N(C)C)cc2cc(C3=CCCN(C(=O)CCn4ccnn4)C3)oc12 | < 100 nM
COc1ccccc1-c1cc(C2=CCCN(C(=O)CCn3ccnn3)C2)c(F)c2[nH]c(C(=O)N3CCC[C@H](OC)C3)cc12 (single isomer, unassigned) | 100 to 1000 nM
CN(C)C(=O)c1cc2c(F)c(C3=CCCN(C(=O)CCn4ccnn4)C3)cc(-c3ccccc3)c2o1 | < 100 nM
CC(=O)N1CCC[C@H](c2cc(-c3ccc(N4CCNCC4)cc3Cl)c3cc(C(=O)N(C)C)[nH]c3c2F)C1 (single isomer, unassigned) | 100 to 1000 nM
CCc1nc(C)ccc1-c1cc(C(=O)N2Cc3cnn(C)c3C2)cc2c(F)c(C3CCCN(C(=O)CCc4nccs4)C3)n(CC3CC3)c12 (single isomer, unassigned) | 1000 to 10000 nM
COc1ccccc1-c1cc(C(=O)N(C)C)cc2sc(C3=CCCN(C(=O)CCn4ccnn4)C3)nc12 | < 100 nM
CN(C)C(=O)c1cc(-c2ccccc2)c2[nH]c(C3=CCCN(C(=O)CCn4ccnn4)C3)cc2c1 | < 100 nM
COc1ccccc1-c1cc(C2=CCCN(C(=O)CCn3ccnn3)C2)c(F)c2[nH]c(C(=O)N3CCN(C4CCN(C)CC4)CC3)cc12 | < 100 nM
CCc1nc(C)ccc1-c1cc(C(=O)N2Cc3cnn(C)c3C2)cc2c(F)c([C@H]3CCCN(C(=O)CCn4ccnn4)C3)n(CC3CC3)c12 (single isomer, unassigned) | 1000 to 10000 nM
O=C(CCn1ccnn1)N1CCC[C@@H](c2nc3cc(-n4ccccc4=O)ccc3o2)C1 (single isomer, unassigned) | 10000 to 100000 nM
COc1ccccc1-c1cc(-c2nccn2C)cc2cc(C3=CCCN(C(=O)CCn4ccnn4)C3)[nH]c12 | < 100 nM
COc1ccccc1-c1cc(-c2ncccc2C)cc2cc(C3=CCCN(C(=O)CCn4ccnn4)C3)[nH]c12 | 100 to 1000 nM
COc1ccccc1-c1cc(C2=CCCN(C(=O)CCn3ccnn3)C2)c(F)c2[nH]c(C(=O)N3CCN(C)C(=O)[C@H]3C)cc12 (single isomer, unassigned) | 100 to 1000 nM
